# Target: human FP receptor (Homo sapiens (Human), UniProt P43088)
# Amino acid sequences for entries named in this document (tags omitted). A change or cut given only in a name is not applied to a line headed by its entry.
# UniProt P43088: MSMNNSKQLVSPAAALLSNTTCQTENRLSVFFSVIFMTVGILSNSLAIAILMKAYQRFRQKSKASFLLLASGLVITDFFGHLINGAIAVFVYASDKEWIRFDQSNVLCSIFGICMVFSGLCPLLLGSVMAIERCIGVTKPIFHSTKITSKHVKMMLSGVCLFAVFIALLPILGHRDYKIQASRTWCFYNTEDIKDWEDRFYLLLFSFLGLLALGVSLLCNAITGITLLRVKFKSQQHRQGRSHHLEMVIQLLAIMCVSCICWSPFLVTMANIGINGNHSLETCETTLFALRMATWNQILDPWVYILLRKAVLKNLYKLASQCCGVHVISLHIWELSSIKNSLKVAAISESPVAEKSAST
# Assay: In vitro test of inhibition of human FP receptor activity (PGF2α-induced calcium flux in FP-expressing CHEM1 cells)
# Assay type: cell-based
# Conditions: PGF2α-induced (3 nM) calcium flux, some as mean values from multiple independent determinations
# Source text: • CRTH2 chemoattractant receptor-homologous molecule expressed on T helper type 2 cells • DMEM Dulbecco's modified Eagle's medium • DMSO dimethyl sulfoxide • DP PGD2 receptor • EC50 half-maximum effective concentration • Em emission • EP PGE2 receptor • Ex excitation • from Company (source) • FCS fetal calf serum • FP PGF2α receptor • HEPES 2-[4-(2-hydroxyethyl)piperazin-1-yl]ethanesulfonic acid • IC50 half-maximum inhibitory concentration • IP PGI2 receptor • MES 2-(N-morpholino)ethanesulfonic acid • Pen/Strep penicillin/streptomycin • PGD2 prostaglandin D2 • PGE2 prostaglandin E2 • PGF2α prostaglandin F2α • PGI2 prostaglandin I2 • TC tissue culture • TP thromboxane A2 receptor • Tris tris(hydroxymethyl)aminomethane • v/v volume to volume ratio (of a solution) • w/w weight to weight ratio (of a solution) B-1. In Vitro Test of Inhibition of Human FP Receptor Activity
# For the characterization of test substances in respect of FP antagonism, PGF2α-induced calcium flux in FP-expressing CHEM1 cells (Millipore, HTS093C) was used.
# Prior to the measurement, the medium is replaced by 30 μl of Fluo-8 AM loading buffer [calcium-free Tyrode (130 mM NaCl, 5 mM KCl, 20 mM HEPES, 1 mM MgCl2, 4.8 mM NaHCO3, pH 7.4), 2 mM CaCl2, 1× SmartBlock (from CANDOR Bioscience GmbH), 4.5 mM Probenecid, 5 μM Fluo-8 AM, 0.016% Pluronic®, 0.04% Brilliant black] and incubated at 37° C./5% CO2 for 30 minutes. […] 10 μl of the prediluted substance solution are added to the Fluo-8-laden cells and incubated at 37° C./5% CO2 for 10 minutes. The FP receptor is activated by adding 20 μl of 3 nM (final concentration) PGF2α in calcium-free Tyrode/2 mM CaCl2/0.04% Brilliant black, and the calcium flux is determined by measuring the fluorescence at ex. 470 nm/[…].
# Table 1 below lists the IC50 values from this assay for individual working examples of the invention (some as mean values from multiple independent individual determinations): […]
row,Structure (SMILES),IC50
1,"Cc1c(-c2ccccc2)nc2ccc(Br)cc2c1C(=O)NC12CCC(C(=O)O)(CC1)C(F)C2 (racemic) [Example 60, 4-{[(6-Bromo-3-methyl-2-phenylquinolin-4-yl)carbonyl]amino}-2-fluorobicyclo [2.2.2]octane-1-carboxylic acid (racemate)]",197 nM
2,"Cc1c(-c2ccccc2)nc2ccc(Br)cc2c1C(=O)NC12CCC(C(=O)O)(CC1)C(F)C2 (single isomer, unassigned; enantiomer 1) [Example 61, (−)-4-{[(6-Bromo-3-methyl-2-phenylquinolin-4-yl)carbonyl]amino}-2-fluorobicyclo[2.2.2]octane-1-carboxylic acid (enantiomer 1)]",83 nM
3,"Cc1c(-c2ccccc2)nc2ccc(Br)cc2c1C(=O)NC12CCC(C(=O)O)(CC1)C(F)C2 (single isomer, unassigned; enantiomer 2) [Example 62, (+)-4-{[(6-Bromo-3-methyl-2-phenylquinolin-4-yl)carbonyl]amino}-2-fluorobicyclo[2.2.2]octane-1-carboxylic acid (enantiomer 2)]",193 nM
